# Ab-91 heavy chain CDR variants: yeast mating affinities

Binding partner: SARS-CoV-2 spike HR2 peptide, sequence PDVDLGDISGINAS.

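The library (AAYL51) carries one to three amino acid substitutions per variant, with no insertions or deletions. AlphaSeq pools MATa yeast showing the antibodies with MATalpha yeast showing the peptide. Binding brings cells together so that they mate, and sequencing counts the barcode pairs among the diploids. Each replicate has its own calibration line, from reference interactions of the BCL2 family. Mating was done three times.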

Ab-91 is the parent antibody, in scFv form: VL, then a 15-residue (Gly4Ser)3 linker, then VH. The light chain is unchanged in all variants.
VL: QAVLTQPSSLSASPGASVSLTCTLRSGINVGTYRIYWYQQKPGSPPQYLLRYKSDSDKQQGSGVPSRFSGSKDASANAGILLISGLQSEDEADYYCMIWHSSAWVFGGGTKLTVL
VH: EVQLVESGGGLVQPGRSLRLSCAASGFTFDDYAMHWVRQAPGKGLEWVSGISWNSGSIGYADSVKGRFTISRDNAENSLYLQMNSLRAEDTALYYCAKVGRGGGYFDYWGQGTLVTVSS

Each variant is given by its three heavy chain CDRs, as the data file delimits them; those of the parent are GFTFDDYAMH, GISWNSGSIGYADSVK, VGRGGGYFDY. Numbers give log10(Kd / nM), so 0 is 1 nM and 3 is 1 µM. Smaller is tighter. Replicates are averaged; those with no signal do not enter the mean. Where no diploid with the target was found in that replicate, the entry reads "ND": below detection, most likely a poor binder, though not proof of it. As a blank, each scFv also met three strains without target: over library AAYL51, 21% of these pairings were detected, typically at 4.54 and seldom below 3.26. Also given: how often the same scFv was detected with the empty control strains, with their mean in brackets.

{"CDR-H1": "GFTFDDYAMH", "CDR-H2": "GISGNSGSIWYADSVK", "CDR-H3": "VGIGGGYFDY", "replicates, log10 nM": "ND / ND / ND", "mean log10 Kd (nM)": "ND", "empty controls": "1/9 (3.93)"}
{"CDR-H1": "GFTFDDYVMH", "CDR-H2": "GISWNSGSIGYADSVL", "CDR-H3": "VGRGGEYFDY", "replicates, log10 nM": "ND / ND / ND", "mean log10 Kd (nM)": "ND", "empty controls": "0/9"}
{"CDR-H1": "GFTFGDYVMH", "CDR-H2": "GISWNSGSIGYADSVY", "CDR-H3": "VGRGGGYFDY", "replicates, log10 nM": "ND / ND / ND", "mean log10 Kd (nM)": "ND", "empty controls": "1/9 (5.14)"}
{"CDR-H1": "GFTFDDYAMH", "CDR-H2": "GISWNSGSIGYARSVK", "CDR-H3": "VGRGGQYFQY", "replicates, log10 nM": "5.20 / 4.49 / ND", "mean log10 Kd (nM)": "4.84", "empty controls": "1/9 (5.25)"}
{"CDR-H1": "GFTFDDYAMH", "CDR-H2": "GISWNSGSIGYADRVK", "CDR-H3": "VGRGGVYFDY", "replicates, log10 nM": "ND / ND / ND", "mean log10 Kd (nM)": "ND", "empty controls": "0/9"}
{"CDR-H1": "IFTPDDYAMH", "CDR-H2": "GISWNSGSIGYADFVK", "CDR-H3": "VGRGGGYFDY", "replicates, log10 nM": "5.81 / ND / ND", "mean log10 Kd (nM)": "5.81", "empty controls": "3/9 (4.20)"}
{"CDR-H1": "GFTFDHYAMH", "CDR-H2": "GISWNSGSIGYADSKR", "CDR-H3": "VGRGGGYFDY", "replicates, log10 nM": "ND / ND / ND", "mean log10 Kd (nM)": "ND", "empty controls": "1/9 (4.21)"}
{"CDR-H1": "GFQFDDYAMH", "CDR-H2": "EQSWNSGSIGYADSVK", "CDR-H3": "VGRGGGYFDY", "replicates, log10 nM": "4.99 / ND / ND", "mean log10 Kd (nM)": "4.99", "empty controls": "4/9 (5.05)"}
{"CDR-H1": "GFTFRDYAMH", "CDR-H2": "GISWNWGSIGYADSVK", "CDR-H3": "VGIGGGYFDY", "replicates, log10 nM": "5.43 / ND / ND", "mean log10 Kd (nM)": "5.43", "empty controls": "2/9 (5.40)"}
{"CDR-H1": "GFTFDKYAMH", "CDR-H2": "GISWNSGSIGYADSVK", "CDR-H3": "VGRGGCYFDW", "replicates, log10 nM": "3.46 / ND / 4.48", "mean log10 Kd (nM)": "3.97", "empty controls": "4/9 (4.14)"}
{"CDR-H1": "GFTFDDYAMH", "CDR-H2": "GNSWNSASIGYADSVK", "CDR-H3": "VGRGGGYFDH", "replicates, log10 nM": "ND / ND / ND", "mean log10 Kd (nM)": "ND", "empty controls": "1/9 (2.80)"}
{"CDR-H1": "GFTFDDYAMH", "CDR-H2": "GICWTSGSIGYADSVK", "CDR-H3": "LGRGGGYFDY", "replicates, log10 nM": "5.08 / 6.28 / 3.58", "mean log10 Kd (nM)": "4.98", "empty controls": "2/9 (4.90)"}
{"CDR-H1": "DFTRDDYAFH", "CDR-H2": "GISWNSGSIGYADSVK", "CDR-H3": "VGRGGGYFDY", "replicates, log10 nM": "4.22 / 5.94 / ND", "mean log10 Kd (nM)": "5.08", "empty controls": "1/9 (3.58)"}
{"CDR-H1": "GLTFDDYAMH", "CDR-H2": "GISWNSGSIGYADSVQ", "CDR-H3": "VPRGGGYFDY", "replicates, log10 nM": "5.72 / ND / ND", "mean log10 Kd (nM)": "5.72", "empty controls": "3/9 (4.56)"}
{"CDR-H1": "GFTFDDYAMH", "CDR-H2": "GISWSSGSIGYAISVK", "CDR-H3": "VGRGGTYFDY", "replicates, log10 nM": "ND / ND / ND", "mean log10 Kd (nM)": "ND", "empty controls": "2/9 (4.44)"}
{"CDR-H1": "GITFDDYAMH", "CDR-H2": "GISWNSGSIGYADSVK", "CDR-H3": "VGRGEGAFDY", "replicates, log10 nM": "4.27 / 5.20 / 4.73", "mean log10 Kd (nM)": "4.73", "empty controls": "5/9 (4.21)"}
{"CDR-H1": "GFTFMDYAMH", "CDR-H2": "MISWNSGSIGYADSVK", "CDR-H3": "VGRGGGTFDY", "replicates, log10 nM": "ND / ND / ND", "mean log10 Kd (nM)": "ND", "empty controls": "0/9"}
{"CDR-H1": "GFTFDDYAMH", "CDR-H2": "GISWNSGSIGYADSVG", "CDR-H3": "CGRGGGSFDY", "replicates, log10 nM": "ND / ND / ND", "mean log10 Kd (nM)": "ND", "empty controls": "3/9 (4.51)"}
{"CDR-H1": "GFTFDDYAMH", "CDR-H2": "GYSWNSSSFGYADSVK", "CDR-H3": "VGRGGGYFDY", "replicates, log10 nM": "3.99 / 5.23 / 4.94", "mean log10 Kd (nM)": "4.72", "empty controls": "7/9 (5.02)"}

Again, the first 2 entries without any signal:

CDR-H1	CDR-H2	CDR-H3	replicates, log10 nM	mean log10 Kd (nM)	empty controls
GFTFDDYAMH	GISGNSGSIWYADSVK	VGIGGGYFDY	ND / ND / ND	ND	1/9 (3.93)
GFTFDDYVMH	GISWNSGSIGYADSVL	VGRGGEYFDY	ND / ND / ND	ND	0/9

From the AlphaSeq antibody data of Engelhart et al. 2022 (doi:10.1038/s41597-022-01779-4), copy in the FLAb collection.